Measured values taken from patent US10092593B2, “Citrate-rich calcium-magnesium supplement and uses thereof” (THE BOARD OF REGENTS OF THE UNIVERSITY OF TEXAS SYSTEM, priority 2012, dated 2018).

Assay: Comparison of solubility and effervescence of representative calcium preparations (Table 1)
Settings: corrected to 400 mg Ca per dose; medium as listed

For calcium acetate [Ca Acetate], the Effervescence was “No”.
